Data: patent US6774121B1, “Phospholipid prodrugs of anti-proliferative drugs” (D-Pharm, Ltd., priority 1999, dated 2004)

Test system: L1210-MTX-TAX (resistant to MTX and Taxol, increased P-gp activity)
Assay: cells
Details: Mus musculus, read-out: EC50, nMol

Structure (SMILES)	EC50 [nM]
CN(Cc1cnc2nc(N)nc(N)c2n1)c1ccc(C(=O)N[C@@H](CCC(=O)O)C(=O)O)cc1 [MTX, Methotrexate]	987
CC(=O)O[C@H]1C(=O)[C@@]2(C)[C@H]([C@H](OC(=O)c3ccccc3)[C@]3(O)C[C@H](OC(=O)[C@H](O)[C@@H](NC(=O)c4ccccc4)c4ccccc4)C(C)=C1C3(C)C)[C@]1(OC(C)=O)CO[C@@H]1C[C@@H]2O [TAX, Taxol]	1850
